Measurements: ChEMBL document CHEMBL6096721, “Discovery of Selenium-Containing Derivatives as Potent and Orally Bioavailable GLP-1R Agonists” (J Med Chem, 2025)

The chains behind the UniProt entries cited, without tags or fusion partners.
UniProt P43220, whole entry: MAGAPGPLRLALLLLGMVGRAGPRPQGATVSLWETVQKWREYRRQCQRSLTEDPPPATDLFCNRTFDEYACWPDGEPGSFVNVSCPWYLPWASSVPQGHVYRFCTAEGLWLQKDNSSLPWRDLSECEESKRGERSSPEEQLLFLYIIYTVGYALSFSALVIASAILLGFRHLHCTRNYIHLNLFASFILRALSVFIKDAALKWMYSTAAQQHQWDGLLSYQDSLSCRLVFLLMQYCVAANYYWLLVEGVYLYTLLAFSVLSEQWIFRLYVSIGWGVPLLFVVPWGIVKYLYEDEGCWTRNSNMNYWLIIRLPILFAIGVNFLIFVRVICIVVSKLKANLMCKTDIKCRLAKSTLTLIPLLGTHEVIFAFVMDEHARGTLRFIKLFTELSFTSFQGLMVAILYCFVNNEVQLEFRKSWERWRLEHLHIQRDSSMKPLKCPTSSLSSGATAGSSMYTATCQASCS

Molecular target: Glucagon-like peptide 1 receptor (Homo sapiens, UniProt P43220)
Test: Binding affinity to human GLP-1R assessed as association rate constant by SPR analysis
Conditions: filed as agonist

Ka: 3.49 10^3/M.s
SMILES: N#Cc1ccc(COc2cccc(C3CCN(Cc4nc5ccc(C(=O)O)cc5n4C[C@@H]4CCO4)CC3)n2)c(F)c1
